Literature values as cited in publication PMC12071944, “Interaction Between Glucagon-like Peptide 1 and Its Analogs with Amyloid-β Peptide Affects Its Fibrillation and Cytotoxicity” (International Journal of Molecular Sciences, 2025).

Molecular target: Aβ
Parameters: method as in PMID 38732194
Settings: ref [58]; read-out: KD for Aβ binding; cited from earlier work

human serum albumin
Kd: ~100 nM
